Results as given in PMC11154958, “Mechanism of Nitrone Formation by a Flavin-Dependent Monooxygenase” (Biochemistry, 2024).

Tests used:
Assay in all cases: purified protein, by the assay type
Details in all cases: other: OxaD 1 μM, pH 7.6, 1% DMSO, roquefortine C fixed 100 μM for cosubstrates, NADPH fixed 500 μM when roquefortine C varied
(R)-[4-^2H]-NADPH = test system: (R)-[4-^2H]-NADPH
NADH = test system: NADH
NADPH = test system: NADPH

OxaD (Penicillium oxalicum)
Km ((R)-[4-^2H]-NADPH): 16 ± 1.0 µM | kcat ((R)-[4-^2H]-NADPH): 0.4 s⁻¹ | kcat/Km ((R)-[4-^2H]-NADPH): 25000 M⁻¹ s⁻¹ | Km (NADH): 17 ± 3.0 µM | kcat (NADH): 0.7 s⁻¹ | kcat/Km (NADH): 43000 M⁻¹ s⁻¹ | Km (NADPH): 24 ± 7.0 µM and 23 ± 4.0 µM | kcat (NADPH): 0.93 s⁻¹ and 0.91 s⁻¹ | kcat/Km (NADPH): 38000 M⁻¹ s⁻¹ and 39000 M⁻¹ s⁻¹

Values joined by “and” are separate entries in the source; they are usually repeats but may differ in a detail not shown here. Equal values may be shown once.
